A word on the pIC50: it is the negative decadic logarithm of the IC50, by convention in mol/L.

This passage reports IC50 results from patent US6583299B1, “α-amino-β-sulfonyl hydroxamic acid compounds” (priority 1999, dated 2003).

Each structure is given as a SMILES string. pIC50: −log10 of the molar value.

The experiment has as its target T1, MMP-1 (Homo sapiens, UniProt P03956).
T1 construct: host or cells: transfected HT-1080 cells
T1 sequence (P03956 100-469): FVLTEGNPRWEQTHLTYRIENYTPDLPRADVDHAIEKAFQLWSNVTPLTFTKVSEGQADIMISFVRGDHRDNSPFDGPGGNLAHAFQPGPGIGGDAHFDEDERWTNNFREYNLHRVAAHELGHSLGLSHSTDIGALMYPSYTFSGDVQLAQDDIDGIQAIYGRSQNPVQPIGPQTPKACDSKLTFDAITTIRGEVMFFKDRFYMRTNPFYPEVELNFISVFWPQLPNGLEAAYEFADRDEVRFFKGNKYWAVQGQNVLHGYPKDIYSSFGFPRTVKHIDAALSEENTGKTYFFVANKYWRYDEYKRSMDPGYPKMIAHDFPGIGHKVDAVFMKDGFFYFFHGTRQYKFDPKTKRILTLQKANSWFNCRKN
Put plainly: In vitro metalloprotease inhibition, fluorogenic MCA peptide substrate. The experiment is classed as biochemical. As to conditions: recombinant human enzyme, APMA-activated, room temperature, pH 7.5.

Regarding `CC(CS(=O)(=O)c1ccc(Oc2ccccc2)cc1)(NCc1ccccc1)C(=O)NO` (centres unmarked) [Example 56], the pIC50 is 5.92. For `CC(CS(=O)(=O)c1ccc(Oc2ccccc2)cc1)(NCc1ccc2c(c1)OCO2)C(=O)NO` (centres unmarked) [Example 66], the pIC50 was 5.63.
